{"source": "patent US4769389A", "about": "“Oxygenated-alkyl derivatives of glutamic and aspartic acids with antagonistic activity to bio-active polypeptides and a method for their preparation” (priority 1985, dated 1988)", "key": {"[1]": {"test": "in vivo", "settings": "mouse, iv"}, "[2]": {"test_system": "pancreatitis in mice induced experimentally by cerulein", "test": "Pancreatitis induced by cerulein in mice", "type": "in vivo", "method": "Adult male mice received six injections of cerulein (Takus) (50 mcg/kg) each hour for six hours.\nThe compound was administered 30 minutes before each administration of cerulein. Nine hours after the beginning of the treatment, the blood was taken from the rectro-orbitory plexus after anaesthesia with ether, the animals were killed and the pancreas removed and weighed."}, "[3]": {"test_system": "guinea-pig gallbladder", "test": "Anti-CCK activity on guinea-pig gallbladders in vitro (contraction by CCK-8)", "settings": "vs CCK-8 10 ng/ml", "method": "ANTI-CCK ACTIVITY ON GUINEA-PIG GALLBLADDERS IN VITRO A longitudinal strip of guinea-pig gallbladder is placed in a bath for isolated organs in Krebs at a temperature of 32° C. and oxygenated continuously with an oxygen-CO2 mixture (95-[…]). The isometric contractions were detected by means of a force transducer and recorded. […] The results obtained are shown in Table 3 which gives the compounds tested and the IC50 values found which were calculated by the method of regression in a test of at least three experiments for each compound studied."}, "[4]": {"test_system": "pancreatitis in rats induced experimentally by taurocholate", "test": "Pancreatitis induced by sodium taurocolate in rats", "type": "in vivo", "method": "The products under examination were administered intraperitoneally (i.p.) 30 minutes before the operation and 3 hours after the operation. Six hours after the laparatomy the blood was removed from the retro-orbitory plexus after anaesthesia with ether, the animals were killed and the pancreas was removed and weighed. The activity of the serum amylase was determined by the method described above."}}, "data": [{"smiles": "CCCCCN(CCCOC)C(=O)C(CCC(=O)O)NC(=O)c1ccc(Cl)c(Cl)c1", "note": "(racemic) [Compound 1]", "values": [{"measurement": "LD50", "setting": "[1]", "result": 396, "unit": "mg/kg"}, {"measurement": "selectivity ratio", "setting": "[1]", "result": 3600}, {"measurement": "RATIO WEIGHT OF PANCREAS / ANIMAL WEIGHT", "setting": "[2]; 5 mg/kg ip + cerulein", "result": 0.46, "unit": "%"}, {"measurement": "RATIO WEIGHT OF PANCREAS / ANIMAL WEIGHT", "setting": "[2]; 7.5 mg/kg ip + cerulein", "result": 0.40, "unit": "%"}, {"measurement": "RATIO WEIGHT OF PANCREAS / ANIMAL WEIGHT", "setting": "[2]; 10 mg/kg ip + cerulein", "result": 0.36, "unit": "%"}, {"measurement": "50% antagonising concentration relative to that of the specific agonist", "setting": "[3]", "result": "about 10 times"}, {"measurement": "RATIO WEIGHT OF PANCREAS / ANIMAL WEIGHT", "setting": "[4]; 5 mg/kg i.p. + taurocholate", "result": 0.47, "unit": "%"}, {"measurement": "RATIO WEIGHT OF PANCREAS / ANIMAL WEIGHT", "setting": "[4]; 10 mg/kg i.p. + taurocholate", "result": 0.42, "unit": "%"}, {"measurement": "RATIO WEIGHT OF PANCREAS / ANIMAL WEIGHT", "setting": "[4]; 20 mg/kg i.p. + taurocholate", "result": 0.39, "unit": "%"}]}]}
